Screening results: PubChem BioAssay, National Center for Advancing Translational Sciences (NCATS)
miR-21 FLuc: raises the signal of a miR-21 reporter | HeLa miR-21 FLuc reporter, luciferase, 48 h | Potency, µM (doses to about 38.3 µM), without a hit: at the top dose reporter change, positive = more light | 340,000 tested, under 10 active | AID 2288; active = well fitted rising curve with a large enough effect; inconclusive = small, poorly fitted or top-dose-only effect; inactive = no such curve, though single readings can be large or run the other way;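 note: % of control where 0% means no effect; miR-21 action dims this reporter so a rising signal means less miR-21 action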
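HeLa miR-21-FLuc reporter line, endogenous miR-21; 2000 cells/well in DMEM/10% FBS; compound titration up to ~40uM final, 48 h, 37 degree Celsius; luciferase detection reagent, 15 min lysis, CCD luminescence.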
GLP-1R agonist: agonists of human GLP-1 receptor; P43220; actives 0.007% (n = 380,000); HEK293 GLP-1R CRE-luciferase, luminescence, 4-6 h; cells express a hypersensitive GLP-1R form; Potency, µM (series often up to 45.6 µM), without a hit: at the top dose activation, usual class: activators; also: potency is read from the fitted curve at half-maximal effect; % of control where 0% means no effect
GLP1R cytotox: cytotoxicity counter-screen for GLP-1 receptor inverse agonists | HEK293 cAMP-luciferase reporter cells, luminescence, 24 h | actives 0.13% (n = 410,000) | AID 624418 | Potency, µM (top dose mostly 38.3 µM), without a hit: at the top dose activity change, negative = inhibition, usual class: inhibitors;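 also: loss of luciferase light is scored as toxicity; potency is read from the fitted curve at half-maximal effect; % is scaled to controls: 0 for no effect and ±100 for the full control effect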
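Step one: seed cells (200 cells/uL, DMEM with 10% Nu serum, 1% pen-strep). Step two: 12-hour incubation at 37 deg C. Step three: pin 23 nL compound, incubate 24 hr. Step four: add luciferase reagent, read luminescence 12 min later.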
Pin1 inh: human Pin1 inhibition | AID 504891 | Q13526 | actives 0.009% (n = 390,000) | Pin1 FP peptide displacement, HiFluor488, 10 min | Potency, µM (titrated, usually from 115 µM), without a hit: at the top dose activity, negative = inhibition, most hits filed as inhibitors; active = well fitted inhibition curve with a large enough effect in the polarisation, with a control signal flat, not every such curve was filed as active; inconclusive = small, poorly fitted or top-dose-only effect, or effect the other way, or a change in a side signal; inactive = no such curve, though single readings can be large or run the other way; the % refers to the polarisation; also: potency is read from the fitted curve at half-maximal effect; % is scaled to controls: 0 for no effect and ±100 for the full control effect
GLP-1R inv ag: GLP-1 receptor (human) inverse agonism | AID 624417 | P43220 | actives 1.6% (n = 410,000) | Potency, µM (series often up to 38.3 µM), for the others: top-dose activity change, negative = inhibition, most hits filed as inhibitors | HEK293 GLP-1R CRE-luciferase, luminescence, 24 h; GLP-1R form is constitutively active; also: potency is read from the fitted curve at half-maximal effect; % is scaled to controls: 0 for no effect and ±100 for the full control effect; nearly all actives have a fitted effect of over 55% in size
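Stable HEK293 clone (constitutively active GLP-1R + cAMP-response luciferase); 200 cells/uL plated, 12 h pre-culture, compound 24 hr, 37 deg C/5% CO2; detection reagent 12 min RT; luminescence.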
PTHR1 ag: activates the human parathyroid hormone receptor PTHR1. Q03431. HEK293 GP2 PTHR1 cells, GloSensor cAMP luminescence, 1 h. actives 0.075% (n = 410,000). AID 743266. Potency, µM (series often up to 115 µM), without a hit: at the top dose activation, actives largely listed as activators; also: potency is read from the fitted curve at half-maximal effect; nearly all actives have a fitted effect of over 55% in size
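HEK-293-derived GP2 cells expressing PTHR1 and a GloSensor cAMP reporter, 3,000/well, plated overnight, given luciferin plus IBMX (each 0.5 mM as added) for 1 h at 37 °C, then compound for 1 h at 37 °C. Luminescence was read after 15 min at room temperature.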
An asterisk follows results filed as active; [ ] = another dose, or the depositor's remark. In the library only some 1.7% were active in any assay of this set; here they are far more common. Unless noted, calls follow the shape of the dose curve; as a rule, active = well fitted curve in the direction sought with a large enough effect; inconclusive = small, poorly fitted or top-dose-only effect, or another doubt; inactive = no such curve, though single readings can be large; an effect the other way counts as inactive or inconclusive.

How did O=C(c1ccc(S(=O)(=O)Cc2cc(F)ccc2F)c([N+](=O)[O-])c1)N1CCCC1 do in these assays?
miR-21 FLuc: 21%; GLP-1R agonist: -4%; GLP1R cytotox: inconclusive; Pin1 inh: 1%; GLP-1R inv ag: 8.9µM*; PTHR1 ag: inactive

Results for O=C(c1ccc(S(=O)(=O)Cc2cc(F)ccc2F)c([N+](=O)[O-])c1)N1CCCCC1 ?
miR-21 FLuc: 1%; GLP-1R agonist: -32%; GLP1R cytotox: inconclusive; Pin1 inh: 1%; GLP-1R inv ag: inconclusive; PTHR1 ag: inactive

What do the screens show for `Cc1ccc(NS(=O)(=O)c2ccc(C(=O)N3CCN(c4ccccn4)CC3)cc2)cc1`?
miR-21 FLuc: 25%; GLP-1R agonist: 1%; GLP1R cytotox: -13%; Pin1 inh: -2%; GLP-1R inv ag: inconclusive; PTHR1 ag: -35%

What do the screens show for `CN(c1ccccc1)S(=O)(=O)c1cc(C(=O)N2CCN(c3ccccn3)CC2)ccc1Cl`?
miR-21 FLuc: 26%; GLP-1R agonist: -13%; GLP1R cytotox: -24%; Pin1 inh: inconclusive; GLP-1R inv ag: 13µM*; PTHR1 ag: -25%[57.5 µM]

How did O=C(c1ccc(N2CCCC2)c([N+](=O)[O-])c1)N1CCN(S(=O)(=O)c2ccc(Cl)cc2)CC1 do in these assays?
GLP-1R agonist: -10%; GLP1R cytotox: -10%; Pin1 inh: -3%; GLP-1R inv ag: 10µM*; PTHR1 ag: inactive

Results for O=C1Cc2cc(S(=O)(=O)N3CCN(c4cccc(C(F)(F)F)c4)CC3)ccc2N1 ?
Pin1 inh: 23%[230 µM]

Results for CC(=O)O[C@@]12CO[C@@H]1C[C@H](O)[C@@]1(C)C(=O)[C@H](O)C3=C(C)[C@@H](OC(=O)C(O)[C@@H](NC(=O)OC(C)(C)C)c4ccccc4)C[C@@](O)([C@@H](OC(=O)c4ccccc4)[C@H]21)C3(C)C (stereo not given in full) ?
GLP-1R agonist: 4%

What do the screens show for `O=C(c1ccc(Cl)c([N+](=O)[O-])c1)N1CCN(c2ccccn2)CC1`?
miR-21 FLuc: -4%; GLP-1R agonist: 3%; GLP1R cytotox: -18%; Pin1 inh: -16%; GLP-1R inv ag: 25%; PTHR1 ag: inactive

How did O=C(c1ccc(S(=O)(=O)Cc2ccccc2Cl)c([N+](=O)[O-])c1)N1CCN(c2ccccn2)CC1 do in these assays?
miR-21 FLuc: 23%; GLP-1R agonist: -1%; GLP1R cytotox: -4%; Pin1 inh: 6%; GLP-1R inv ag: 10µM*; PTHR1 ag: -39%

What do the screens show for `Cc1nc2ccc(NC(=O)c3ccc(Cl)c(S(=O)(=O)N(C)c4ccccc4)c3)cc2s1`?
miR-21 FLuc: inconclusive; GLP-1R agonist: 7%; GLP1R cytotox: -1%; Pin1 inh: inconclusive; GLP-1R inv ag: 1.8µM*; PTHR1 ag: -38%

What do the screens show for `Cc1nc2ccc(NC(=O)c3cc(S(=O)(=O)N(C)c4ccccc4)ccc3Cl)cc2s1`?
miR-21 FLuc: 19%; GLP-1R agonist: 9%; GLP1R cytotox: -1%; Pin1 inh: 76%; GLP-1R inv ag: inconclusive; PTHR1 ag: -20%

What do the screens show for `CCC(=O)NC(c1ccco1)c1cc(Cl)c2c(c1O)NCCC2` (stereo not given)?
Pin1 inh: -1%

How did CCCC(c1nnnn1Cc1ccc(OC)cc1)N1CCN(c2ccccc2OC)CC1 (stereo not given) do in these assays?
miR-21 FLuc: 4%; GLP-1R agonist: 16%; GLP1R cytotox: 0%; Pin1 inh: 0%; GLP-1R inv ag: 10µM*; PTHR1 ag: -22%

Compounds shown so far containing two or more sulfur atoms:
What do the screens show for `Cc1nc2ccc(NC(=O)c3ccc(Cl)c(S(=O)(=O)N(C)c4ccccc4)c3)cc2s1`?
miR-21 FLuc: inconclusive; GLP-1R agonist: 7%; GLP1R cytotox: -1%; Pin1 inh: inconclusive; GLP-1R inv ag: 1.8µM*; PTHR1 ag: -38%

What do the screens show for `Cc1nc2ccc(NC(=O)c3cc(S(=O)(=O)N(C)c4ccccc4)ccc3Cl)cc2s1`?
miR-21 FLuc: 19%; GLP-1R agonist: 9%; GLP1R cytotox: -1%; Pin1 inh: 76%; GLP-1R inv ag: inconclusive; PTHR1 ag: -20%
